# Binding of CDR-mutated scFvs to a peptide of the spike HR2 region

Antigen: PDVDLGDISGINAS, a 14-residue peptide of the SARS-CoV-2 spike HR2 region.

Each scFv is VH, three GGGGS repeats, VL, as in the parent Ab-95, and differs from it in the CDRs of the light chain only.
VH: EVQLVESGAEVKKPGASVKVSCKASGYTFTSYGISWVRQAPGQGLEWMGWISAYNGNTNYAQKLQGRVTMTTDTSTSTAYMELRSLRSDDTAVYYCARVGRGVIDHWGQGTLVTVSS
VL: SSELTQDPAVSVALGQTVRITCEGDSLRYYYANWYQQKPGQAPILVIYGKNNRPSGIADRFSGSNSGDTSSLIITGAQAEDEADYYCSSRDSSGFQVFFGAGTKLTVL

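The library (AAYL52) carries one to three amino acid substitutions per variant, with no insertions or deletions. The assay is AlphaSeq: two haploid yeast populations carry antibody and antigen on their surface. Pairs that bind mate more often; barcode pairs of the diploids are counted by sequencing. Read counts were normalised to the haploid input and turned into Kd by a linear fit to BCL2-family pairs of known affinity, for each replicate. Mating was done three times.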

Each variant is given by its three light chain CDRs, as the data file delimits them; those of the parent are EGDSLRYYYAN, GKNNRPS, SSRDSSGFQVF.
All variants listed here change R90 of the VL, counted from its first residue.
The read-out is the apparent dissociation constant on a log10 scale (nM): the lower, the stronger.
Where no diploid with the target was found in that replicate, the entry reads "nd": below detection, most likely a poor binder, though not proof of it.
Three control strains display no target. For library AAYL52, 28% of the pairings with them gave a signal, with a median of 3.91 and one signal in twenty below 2.90, so weak values seen in few replicates may be background. For each scFv, signals with the empty controls are counted beside the result.

The variant EGDGLRYYKAN | GKNNRPS | SSKDSSGFQVF gave 3.65, 3.76, 3.66 (controls 2 of 9).
The variant EGDSLRYYYAN | LKNNRIS | SSVDSSGFQVF gave 3.50, 4.97, nd (controls 1 of 9).
The variant EGDSLRYYYAN | GKNNRPS | SSGDSSGFLMF gave 3.69, 3.66, nd (controls 4 of 9).
The variant EGDSLRYYYAN | GKNTRHS | SSHDSSGFQVF gave 4.28, 2.87, nd (controls 1 of 9).
The variant EGDSLRDYYAN | GKNNRPS | SSGDFSGFQVF gave 1.90, 2.02, 1.18 (controls 1 of 9).
The variant AGDSLRYYYAN | GFNNRPS | SSCDSSGFQVF gave nd, nd, 3.76 (controls 0 of 9).
The variant EGDSLRYYYAN | GKNNRPV | SSYDSSGFQVI gave 4.91, 3.81, 3.21 (controls 4 of 9).
The variant EGDSLCYYFAN | GKNNRPS | SSEDSSGFQVF gave 4.10, nd, nd (controls 3 of 9).
The variant EGDSLRYYYAN | GKNDRPS | SSGDSSGFVVF gave 2.76, 4.34, nd (controls 5 of 9).
The variant EGDSLRYYYAN | GKNNRPS | SSSDSSYFQKF gave 4.55, 4.00, 2.76 (controls 2 of 9).
The variant EGDSLVYYYSN | GKNNRPS | SSTDSSGFQVF gave 5.59, nd, nd (controls 3 of 9).
The variant EGDSLRYWYAP | GKNNRPS | SSCDSSGFQVF gave 4.29, nd, nd (controls 2 of 9).
The variant EGDSLRYYYAQ | GKNNRPS | SSYCSSGFQVF gave 3.98, nd, 3.57 (controls 1 of 9).
The variant EGDSLRIYYAN | GKNNRPK | SSFDSSGFQVF gave 4.62, nd, nd (controls 2 of 9).
The variant EGDSLRYYYAN | GKNIRPS | SSPDCSGFQVF gave 2.48, 2.71, 3.35 (controls 1 of 9).
The variant EGDSLDYYYAN | GKNNRPS | SSADSSGFAVF gave 3.29, 3.13, 2.69 (controls 3 of 9).
The variant EGDSLRYYYAN | GKNNYPS | SSQDSSGHQVF gave nd, 3.78, nd (controls 2 of 9).
The variant EGDSPRYYYAN | GKNNRPS | SHHDSSGFQVF gave nd, nd, nd (controls 0 of 9).
The variant EWDSLRYYYAN | GKNNRPS | SSNDSSGFQVF gave 3.09, 5.21, nd (controls 5 of 9).
The variant EWDSLRYYYEN | GKNNRPS | SSCDSSGFQVF gave nd, nd, nd (controls 2 of 9).
The variant EGDSLRYFYAN | GKNNRPS | SSIDPSGFQVF gave 3.12, nd, 2.01 (controls 4 of 9).
The variant EGDSLRYYYAN | CKNNRPS | PSNDSSGFQVF gave 4.52, nd, nd (controls 1 of 9).
The variant EGDSLRYYYAN | GANNRPS | SSCDSSWFQVF gave 2.26, 2.99, 2.15 (controls 4 of 9).
The variant EGDSLRYYYAN | GKNNRPS | SSADSAGFQMF gave 3.28, 2.39, 3.25 (controls 0 of 9).
The variant EGPSLRYYYAN | GKNNRPS | SSCDSSGFQVF gave 3.49, 3.90, 2.32 (controls 2 of 9).
The variant EGDSLRYYYAN | GKNNRPS | SSMDSSGFQVF gave 2.07, 2.41, 1.85 (controls 3 of 9).
The variant EGDSPRYYYLN | GKNNRPS | SSFDSSGFQVF gave 4.54, 4.77, 3.45 (controls 6 of 9).
The variant EGDELRYYYAN | GKNNRPS | PSEDSSGFQVF gave nd, nd, nd (controls 1 of 9).
The variant EGDSLRYYYAN | MKNNRPS | SSDDSSGFQHF gave nd, 3.61, 4.13 (controls 1 of 9).
The variant EGDSLRAYYAN | GKNNRVS | SSHDSSGFQVF gave 2.59, 2.29, 3.00 (controls 1 of 9).
The variant EGDSLRYYYAN | GKQNRPS | SFLDSSGFQVF gave 3.54, nd, 3.79 (controls 0 of 9).
The variant ECDSLRYYYAN | GKNNRPS | SSWDSSGCQVF gave 4.44, nd, 4.25 (controls 2 of 9).
The variant QGDSLRYYYAN | GINNRPS | SSFDSSGFQVF gave nd, 3.97, nd (controls 2 of 9).
The variant ERDSLRYYCAN | GKNNRPS | SSADSSGFQVF gave 3.96, 2.92, nd (controls 2 of 9).
The variant EGDGLRYYYAN | GKTNRPS | SSDDSSGFQVF gave 3.68, 3.50, nd (controls 3 of 9).
The variant EGDSLRYYYAN | GKNNRPS | SSYDSSNIQVF gave 2.85, 2.66, 2.60 (controls 1 of 9).
The variant EGTSLRYYDAN | GKNNRPS | SSFDSSGFQVF gave 1.15, 1.04, 0.60 (controls 4 of 9).
The variant EGDSLRYYYCN | IKNNRPS | SSQDSSGFQVF gave 3.16, nd, nd (controls 4 of 9).
The variant HGDSLRYYYAN | GKNNRPS | QSIDSSGFQVF gave 3.89, nd, nd (controls 3 of 9).
The variant EGDSLRYYYAN | GKNDRPS | SSADSSGFQTF gave nd, 5.07, nd (controls 2 of 9).
The variant EGDSLRYLYAN | GKNNRPS | SSVDFSGFQVF gave 2.36, 1.89, 1.32 (controls 2 of 9).
The variant EGDSLRYAYAN | GKNNRPS | SSVDSSGFTVF gave 1.70, 1.28, 1.05 (controls 3 of 9).
The variant EGDSLCNYYAN | GKNNRPS | SSNDSSGFQVF gave 3.01, 3.68, nd (controls 1 of 9).
The variant EGDSLRYYYAN | GKNNRPS | SSNDRSGFQVF gave nd, nd, nd (controls 4 of 9).
The variant EGDSLRYYYAN | KKNNRPS | SSKDSSGFQVF gave nd, nd, nd (controls 1 of 9).
The variant EGDSLRYYYAN | GKNNRMS | SHQDSSGFQVF gave 2.50, 3.30, 4.59 (controls 3 of 9).
The variant EGDSLRYYYAN | GWNSRPS | SSEDSSGFQVF gave 3.81, nd, nd (controls 4 of 9).
The variant EGMSLRYYYAN | GKPNRPS | SSCDSSGFQVF gave 3.65, 5.63, 2.38 (controls 2 of 9).
The variant EGDSLRYYYAN | GKNNRPS | SSVSSLGFQVF gave nd, nd, 3.44 (controls 2 of 9).
The variant EGDSLRYYYAK | GKNNRPS | SSNTSSGFQVF gave 4.20, nd, nd (controls 5 of 9).
The variant EGDSLRYYYAN | GKNERPS | SSNDSSAFQVF gave 2.67, 2.09, 2.15 (controls 2 of 9).

The 6 strongest on average among those seen in every replicate, once more:

For EGTSLRYYDAN | GKNNRPS | SSFDSSGFQVF, the assay gave 1.15, 1.04, 0.60 (controls 4 of 9).
For EGDSLRYAYAN | GKNNRPS | SSVDSSGFTVF, the assay gave 1.70, 1.28, 1.05 (controls 3 of 9).
For EGDSLRDYYAN | GKNNRPS | SSGDFSGFQVF, the assay gave 1.90, 2.02, 1.18 (controls 1 of 9).
For EGDSLRYLYAN | GKNNRPS | SSVDFSGFQVF, the assay gave 2.36, 1.89, 1.32 (controls 2 of 9).
For EGDSLRYYYAN | GKNNRPS | SSMDSSGFQVF, the assay gave 2.07, 2.41, 1.85 (controls 3 of 9).
For EGDSLRYYYAN | GKNERPS | SSNDSSAFQVF, the assay gave 2.67, 2.09, 2.15 (controls 2 of 9).

Values reported by Engelhart et al. 2022, doi:10.1038/s41597-022-01779-4 (FLAb copy).